Assay results from paper PMC11109934 (RSC Medicinal Chemistry, 2024).

Test system: BxPC3 cells
Assay: xCELLigence real time monitoring of cell proliferation, BxPC3
Type: cell-based, human
Conditions: 16 μM

Oc1cccc2ccccc12 [1-naphthol, 1-Naphthol]
activity in real-time xCELLigence experiments: notable activity
